Measurements reported in patent publication EP0073711A1, “Salts of 2-oxopentane-1,5-dicarboxylic acid, their preparation and pharmaceutical preparations containing these salts” (S.A. D[…] LEBAS (Société Anonyme), priority 1981, dated 1983).

What was measured:
[1] = Solubility in water at 20°C; format: physicochemical; conditions: calcium salt in the trihydrate state
Description: La solubilité de ce sel à l'état trihydraté, dans l'eau à 20°C est de 9% en poids.
La solubilité du sel de lithium, dans l'eau à 20°C est de 5,5 % en poids.

souris = assay: Acute toxicity (DL50); format: in vivo
Text: On a vérifié que les doses létales 50 (DL50) du sel acide de calcium de l'acide 2-oxo-1,5 pentane dioïque sont, chez la souris, de 10g par kg dans le cas d'une administration orale et de 2g par kg dans le cas d'une administration intrapéritonéale.

[2] = tested on: système nerveux central de la souris; assay: Rotarod test (rotating cylinder) after chlorpromazine; format: in vivo
Text: Activité du sel acide de calcium de l'acide 2-oxo-1,5- pentane dioîque sur le système nerveux central de la souris.
3. Test du "rotarod" (cylindre tournant)
Dans ce test, la souris tourne sur un cylindre animé d'un mouvement rotatif, perd l'équilibre et tombe après administration de chlorpromazine (CPZ).

patient = assay: Clinical test: corrective effects on hypoxia (chamber, 12,5% O2); format: in vivo, homme; conditions: 4g par jour per os for 8 days, compared with piracétam
Text: 1. Effets correctifs du sel acide de calcium de l'acide 2-oxo 1,5-pentane dioïgue sur l'hypoxie
Le test est réalisé sur le patient après le passage de celui-ci en caisson sous une hypoxie à 12,5% d'O2.

For “sel de calcium acide de l'acide 2-oxo-1,5- pentane dioïque”, the “solubilité dans l'eau à 20°C” value [1] was 9 % en poids, the “doses létales 50 (DL50)” value (souris; administration intrapéritonéale) was 2 g par kg and the “doses létales 50 (DL50)” value (souris; administration orale) was 10 g par kg. The “déséquilibre moteur induit par le CPZ” value [2] was “réduction du déséquilibre moteur” and the “effets sur les tracés des électrocardiogrammes et encéphalogrammes, le comportement et la thymie” value (patient) was “plus nets”.
